Measured values published in PubChem BioAssay AID504454 (NMMLSC, 2011).
The entries are a selection whose mix differs from that of the whole data set. Some structures show a salt or complex split into parts, the way the source records it. Active and inactive are the calls of the source.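 Rule for the calls: active = response above a set limit, near 3 SD of response in nonfluorescent compounds (cut at about 42% in these data); inactive = the rest.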

Protein sequences, listed by entry. Tags and fused reporters are not part of them.
UniProt P07550, whole entry: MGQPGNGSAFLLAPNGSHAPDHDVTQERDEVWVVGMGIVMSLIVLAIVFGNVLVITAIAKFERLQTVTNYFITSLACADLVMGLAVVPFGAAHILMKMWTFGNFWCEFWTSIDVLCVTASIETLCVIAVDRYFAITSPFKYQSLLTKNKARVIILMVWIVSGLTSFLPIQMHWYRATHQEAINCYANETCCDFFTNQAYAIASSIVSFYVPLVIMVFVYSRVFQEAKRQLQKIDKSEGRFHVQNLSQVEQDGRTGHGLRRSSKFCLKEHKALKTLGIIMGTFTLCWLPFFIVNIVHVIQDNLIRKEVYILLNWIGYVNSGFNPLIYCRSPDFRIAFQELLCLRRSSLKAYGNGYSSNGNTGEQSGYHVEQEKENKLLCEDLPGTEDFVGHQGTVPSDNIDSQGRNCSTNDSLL

The compounds below were run against Beta-2 adrenergic receptor (Homo sapiens) (UniProt P07550) (assay: agonist-induced loss of surface beta2AR – cell-based, FAP fluorogen, flow cytometry, primary screen (AID 504454)). Conditions: Am2.2-beta2AR cells, FAP receptor internalization, stronger effect = higher value, concentration not given here.

Compound	response
O=C1C(O)=C([N+](=O)[O-])C(=O)C(O)=C1[N+](=O)[O-]	inactive: 11.2%
O=P(Nc1nc2ccc(Cl)cc2s1)(c1ccccc1)c1ccccc1	inactive: -4.46%
Cc1cc(C)cc(OP(C)(=O)Nc2cccc(C(F)(F)F)c2)c1 (stereo unspecified)	inactive: 8.3%
CP(=O)(Nc1ccccc1)Oc1ccc(F)cc1 (stereo unspecified)	inactive: 7.13%
CC(NC(=O)COC(=O)C(O)(c1ccccc1)c1ccccc1)c1ccccc1 (stereo unspecified)	inactive: -2.13%
Cc1ccccc1OP(=O)(Nc1ccccn1)Oc1ccccc1C	inactive: 18.7%
O=[N+]([O-])c1cc([N+](=O)[O-])c(OC2CCCCC2O)c([N+](=O)[O-])c1 (stereo unspecified)	inactive: 4.22%
O=c1c2cc([N+](=O)[O-])ccc2[nH]c2c([N+](=O)[O-])cc([N+](=O)[O-])cc12	inactive: 22.4%
CCCCCOc1ccc(NP(C)(=O)Oc2ccc(Cl)cc2Cl)cc1 (stereo unspecified)	inactive: -8.9%
CN(C)C(=O)Oc1noc2ccccc12	inactive: -8.55%
COC(=O)c1cc2c(s1)N=C(c1ccccc1)N(C)P2(=O)N1CCOCC1 (stereo unspecified)	inactive: 1.96%
Cc1c([N+](=O)[O-])cc([N+](=O)[O-])c(Br)c1[N+](=O)[O-]	inactive: -0.48%
CC(=O)NC(SC(=S)N(CC(C)C)CC(C)C)C(Cl)(Cl)Cl (stereo unspecified)	inactive: 6.04%
Cc1ccc(OP(=O)(Nc2ccccn2)Oc2ccc(C)cc2)cc1	inactive: -10.9%
O=C(OC1CN2CCC1CC2)c1ccccc1 (stereo unspecified)	inactive: -14.5%
CCC(=O)N1C2C3N(C(=O)CC)C1C1N(C(=O)CC)C(C(N1C(=O)CC)N3C(=O)CC)N2C(=O)CC	inactive: 11%
CCN(CC)CCCOC(=O)C(O)(c1ccccc1)C1CCCCC1 (stereo unspecified)	inactive: -4.35%
O=P1(N(CCCl)CCCl)OCCC2CCCCN21 (stereo unspecified)	inactive: 1.74%
CCOC(=O)c1ccc(NP(C)(=O)Oc2ccc(F)cc2)cc1 (stereo unspecified)	inactive: -1.15%
COc1ccc(OP(C)(=O)Nc2ccc(SC(F)(F)F)cc2)cc1 (stereo unspecified)	inactive: -6.01%
O=C(NC1CCS(=O)(=O)C1)NP(=S)(Oc1ccccc1)Oc1ccccc1 (stereo unspecified)	inactive: 12.6%
CCNC(=S)/N=C(\N)N[N+](=O)[O-]	inactive: -1.5%
c1ccc(-c2nn[nH]n2)c(-c2nn[nH]n2)c1	inactive: -0.88%
Cc1ccc(NP(=O)(Oc2cccc(C)c2)Oc2cccc(C)c2)nc1	inactive: -6.66%
CC(=O)Nc1ccc([As](=O)(O)O)c(O)c1	inactive: -3.63%
COc1ccc2c(c1O)-c1c(O)c(OC)cc3c1[C@H](C2)[N+](C)(C)CC3.O=[N+]([O-])c1cc([N+](=O)[O-])c([O-])c([N+](=O)[O-])c1[O-]	inactive: -0.37%
